These results are taken from US20240383856A1 (Zedira GmbH, priority 2021, published 2024).

Chains of the proteins cited; added tags and fusions are not shown.
UniProt P21980, whole entry: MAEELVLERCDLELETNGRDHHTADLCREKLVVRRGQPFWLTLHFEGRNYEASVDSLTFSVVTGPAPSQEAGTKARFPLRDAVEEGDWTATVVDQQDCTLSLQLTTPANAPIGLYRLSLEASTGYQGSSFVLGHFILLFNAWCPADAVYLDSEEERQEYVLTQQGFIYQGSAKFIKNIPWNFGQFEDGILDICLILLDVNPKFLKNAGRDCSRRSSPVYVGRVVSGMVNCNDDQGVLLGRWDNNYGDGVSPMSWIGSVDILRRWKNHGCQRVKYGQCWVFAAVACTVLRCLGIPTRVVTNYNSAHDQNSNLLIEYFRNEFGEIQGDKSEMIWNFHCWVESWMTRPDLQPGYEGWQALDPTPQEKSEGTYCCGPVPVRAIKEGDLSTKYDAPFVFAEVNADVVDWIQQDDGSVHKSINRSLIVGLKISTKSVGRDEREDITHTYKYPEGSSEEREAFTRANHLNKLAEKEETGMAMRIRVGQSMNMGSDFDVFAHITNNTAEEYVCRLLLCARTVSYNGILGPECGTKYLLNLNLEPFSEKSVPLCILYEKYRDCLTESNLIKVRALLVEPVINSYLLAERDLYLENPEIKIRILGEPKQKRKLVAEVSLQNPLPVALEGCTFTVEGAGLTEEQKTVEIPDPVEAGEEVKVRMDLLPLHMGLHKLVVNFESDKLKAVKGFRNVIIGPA

Molecules are shown by their SMILES.

The test system of series [1] is Caco-2 barrier. Description: Caco-2 permeability assay (CacoReady kit). The conditions noted are these: for Papp [cm/s] ×10^−6: Caco-2 barrier, CacoReady kit, above 1×10^−6 cm/s classified as permeable. Here is the method: Permeability coefficients (Papp values) were obtained from Caco-2 barrier studies predicting oral/intestinal bioavailability of the tested compounds. The assays were performed by using CacoReady™ ready-to-use kits from ReadyCell according to the manufacturers protocol.
For orientation: Caco-2 cells form a polarised layer with tight junctions and transporters.

Series [2] addresses recombinant human transglutaminase 2 (Homo sapiens, UniProt P21980). Description: Transglutaminase assay (DCC-assay): incorporation of dansylcadaverine into dimethylcasein. The conditions noted are these: for IC50: read-out: IC50 TG2, recombinant human TG2 10 nM, dansylcadaverine incorporation into dimethylcasein. The procedure:
To illustrate the advantage of branched alkyl moieties over aromatic moieties, we refer to reference compounds Ref. 2 (ZED1227, U.S. Pat. No. 9,434,763 B2) and Ref. 3 (A8, ZED1047). Inhibition data were determined using the classical fluorescent transamidation assay (dansylcadaverine incorporation into methylated casein, DCC-assay) as described [Buchold, C.; Hils, M.; Gerlach, U.; Weber, J.; Pelzer, C.; Heil, A.; Aeschlimann, D.; Pasternack, R. Features of ZED1227: The First-In-Class Tissue Transglutaminase Inhibitor Undergoing Clinical Evaluation for the Treatment of Celiac Disease. Cells 2022, 11, 1667. https://doi.org/10.3390/cells11101667]. Casein is one of the best known high molecular weight (24 kDa) protein substrates for transglutaminases. Please note, the IC50 value of Ref. 3 (A8) published in U.S. Pat. No. 9,434,763 B2 cannot be compared to the present data, relying on a fluorogenic isopeptidase assay.
To this extent, inhibition data were determined using the classical fluorescent transamidation assay (dansylcadaverine incorporation into methylated casein, DCC-assay) as described in Büchold et al. [Büchold, C.; Hils, M.; Gerlach, U.; Weber, J.; Pelzer, C.; Heil, A.; Aeschlimann, D.; Pasternack, R. Features of ZED1227: The First-In-Class Tissue Transglutaminase Inhibitor Undergoing Clinical Evaluation for the Treatment of Celiac Disease. Cells 2022, 11, 1667. https://doi.org/10.3390/cells11101667]. Casein is one of the best known high molecular weight (24 kDa) protein substrates for transglutaminases. Inhibition data of the inventive compounds was compared with inhibition of compounds disclosed in U.S. Pat. No. 9,434,763 B2, particularly, compound A8, which is denoted herein as Reference 3. It is noteworthy that the IC50 values of compounds A8 published in U.S. Pat. No. 9,434,763 B2 and E16 from U.S. Pat. No. 11,072,634 B2 cannot be compared to the present data, relying on a fluorogenic isopeptidase assay.
For the determination of potency of inhibitors against tissue transglutaminase, the incorporation of dansylcadaverine into dimethylcasein (Zedira product T036, Lorand et al., Anal Biochem, 1971, 44:221-31) was measured using recombinant human transglutaminase 2 (Zedira Product T022).
The tissue transglutaminase is diluted in buffer (50 mM Tris-HCl, 7.5 mM CaCl2), 150 mM NaCl, pH=7.4). The final concentration of TG2 in the assay is 10 nM.
A 10 mM inhibitor stock solution is prepared in DMSO, and from this a serial 1:2-fold dilution series is prepared also in DMSO. Each of the initial dilutions is subsequently diluted 1:50-fold with buffer (50 mM Tris-HCl, 7.5 mM CaCl2), 150 mM NaCl, pH=7.4) to yield the final working dilutions containing 2% (v/v) DMSO.
15 μl of inhibitor working dilution are added per well of a 96 well microtiter plate. As control, 15 μl of a 2% (v/v) DMSO solution prepared using the buffer mentioned above are added per well.
Immediately before starting the assay, 600 μl transglutaminase working solution are added to 11.4 ml assay buffer (50 mM Tris-HCl, 10 mM CaCl2), 10 mM glutathione, 2.5% glycerol, 16.7 µM dansylcadaverine, 4 uM N,N-dimethylcasein, 200 mM NaCl, pH=8.0). 285 μl of this reaction mix are added per well containing the inhibitor.
Increase in fluorescence is measured using λex=330 nm and λem=500 nm at 37° C. for 30 min. A slope of the increase in fluorescence between 20 and 30 min is calculated for determination of the IC50 value (inhibitor concentration at which 50% of the initial activity is blocked).
Analysis of enzymatic activity is performed by calculation of the slope of an increase in fluorescence intensity. IC50 values are calculated by plotting the enzymatic activity (as percentage from control containing 2% DMSO instead of inhibitor) against the inhibitor concentration. IC50 is defined as the inhibitor concentration blocking 50% of initial enzyme activity.

A short description of series [3]: logD by shake flask method (octanol / PBS pH 7.4, HPLC). The note with it: octanol / PBS pH 7.4, shake flask. Here is the method: In order to classify the inventive compounds according to their lipophilicity, LogD values (distribution coefficient) were determined by means of the well-established shake flask method, measuring the partition of a compound between an octanol and phosphate-buffered saline (PBS, pH 7.4) by HPLC.
The LogD is pH dependent and is a “predictor” for in-vivo properties. LogD combines lipophilicity (intrinsic structural property of the molecule, logP) and ionizability (pKa). Compounds with a moderate lipophilicity (LogD values from 0 to 3) are usually advantaged for oral absorption, being in balance between solubility and permeability. However, sophisticated formulation of a compound might improve oral bioavailability for highly lipophilic compounds.

In the case of `CNC(=O)C(=O)CC[C@H](NC(=O)c1oc2ccccc2c1C)C(=O)Nc1cccn(CC(=O)NC23CC4C5CC6CC4C(C2)C(C6)C5C3)c1=O`, the Papp (usually a coefficient for how fast a substance crosses the barrier) in series [1] lay in the range of 1 to 10 ×10⁻⁶ cm/s. In addition, the IC50 – broadly, the concentration needed to halve the response being measured – in series [2] was 40 to 400 nM.
For the molecule `CCC(CC)CNC(=O)Cn1cccc(NC(=O)[C@H](CCC(=O)C(=O)NC)NC(=O)c2cncn2C)c1=O`, the logD result in series [3] is “A (A: logD < 1)”. The “Papp [cm/s] ×10^−6” value in series [1] is “A (Papp < 1 × 10^−6 cm/s)”. Further, the “fold more potent compared to Ref. 6” value in series [2] (IC50 ratio versus Ref. 6) is listed as “about 10 fold”. In addition, the IC50 in series [2] was 400 to 2500 nM.
For `CNC(=O)C(=O)CC[C@H](NC(=O)c1cccnc1)C(=O)Nc1cccn(CC(=O)NCCc2ccccc2)c1=O`, in series [1], the Papp is less than 1 ×10⁻⁶ cm/s. Besides, in series [2] (IC50 ratio versus II-111), the “times less potent in comparison to compound II-111” value is recorded as “more than 25 times”. Besides, the IC50 in series [2] was 2500 to 10000 nM.
For `CCOC(=O)/C=C/CC[C@H](NC(=O)c1cccnc1)C(=O)Nc1ccc(C)n(CC(=O)NCCc2ccccc2)c1=O`, the logD entry in series [3] was “B (B: 1 ≤ logD < 3)”. Further, the “Papp [cm/s] ×10^−6” value in series [1] is given as “A (Papp < 1 × 10^−6 cm/s)”. For the same molecule, the IC50 in series [2] was 2500 to 10000 nM.
